Literature values in publication PMC11339341.
Read-outs that look alike come from different tables or passages of the source. Values belong to the substance of their own block, whether it stands above or below them.

Chains of the proteins cited; added tags and fusions are not shown. Residues count along the entry.
UniProt P19235, 25-250: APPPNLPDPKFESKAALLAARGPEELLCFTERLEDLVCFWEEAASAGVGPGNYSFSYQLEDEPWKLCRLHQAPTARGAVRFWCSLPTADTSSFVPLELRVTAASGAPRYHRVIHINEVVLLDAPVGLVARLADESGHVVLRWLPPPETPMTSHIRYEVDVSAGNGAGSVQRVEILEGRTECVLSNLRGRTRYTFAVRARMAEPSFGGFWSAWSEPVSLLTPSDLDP
UniProt P01589, 22-240, chain 1 of 3: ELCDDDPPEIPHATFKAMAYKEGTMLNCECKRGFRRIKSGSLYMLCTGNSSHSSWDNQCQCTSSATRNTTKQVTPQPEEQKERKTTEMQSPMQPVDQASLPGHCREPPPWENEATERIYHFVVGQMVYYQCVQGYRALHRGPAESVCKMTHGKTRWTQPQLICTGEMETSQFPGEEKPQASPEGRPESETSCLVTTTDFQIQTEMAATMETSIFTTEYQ

Legend:
[1] = molecular target: Erythropoietin receptor (Homo sapiens) (UniProt P19235)
[2] = molecular target: IL-2Rα:IL-2Rβ:γc (Homo sapiens) (UniProt P01589)
[3] = molecular target: Erythropoietin receptor (Homo sapiens) (UniProt P19235); remark: listed apart in the source

- Kd [1]: 1 nM
Substance: Erythropoietin site 1 (from UniProt P01588)

- Kd [2]: 0.01 nM
Substance: IL-2 (from UniProt P60568)

- Kd [3]: 1000 nM
Substance: Erythropoietin site 2 (from UniProt P01588)
